Test results as given in article PMC9569420 (Communications Biology, 2022).
Several values for one entry are separate records, joined by “and”; a condition that tells them apart may be missing. Identical values can stand only once.

Legend:
Format in all cases: biochemical
CLK3 = molecular target: T1, CLK3 (Homo sapiens, UniProt P49761); test: HotSpot kinase assay; details: 10µM
T1 construct: purchased Reaction Biology Corporation

EIF2AK1 = molecular target: T2, EIF2AK1 (Homo sapiens, UniProt Q9BQI3); test: HotSpot kinase assay; details: 10µM
T2 construct: purchased Reaction Biology Corporation

EPHA7 = molecular target: T3, EPHA7 (Homo sapiens, UniProt Q15375); test: HotSpot kinase assay; details: 10µM
T3 construct: purchased Reaction Biology Corporation

CK1epsilon = molecular target: T4, CK1epsilon (Homo sapiens, UniProt P49674); test: HotSpot kinase assay; details: 10µM
T4 construct: purchased Reaction Biology Corporation

MASTL = molecular target: T5, MASTL (Homo sapiens, UniProt Q96GX5); test: HotSpot kinase assay; details: 10µM
T5 construct: purchased Reaction Biology Corporation

FGFR1 = molecular target: T6, FGFR1 (Homo sapiens, UniProt P11362); test: HotSpot kinase assay; details: 10µM
T6 construct: purchased Reaction Biology Corporation

LIMK2 = molecular target: T7, LIMK2 (Homo sapiens, UniProt P53671); test: HotSpot kinase assay; details: 10µM
T7 construct: purchased Reaction Biology Corporation

PKD2/PRKD2 = molecular target: T8, PKD2/PRKD2 (Homo sapiens, UniProt Q9BZL6); test: HotSpot kinase assay; details: 10µM
T8 construct: purchased Reaction Biology Corporation

AMPK (A2/B1/G3) = molecular target: T9, AMPK (A2/B1/G3) (Homo sapiens, UniProt P54646); test: HotSpot kinase assay; details: 10µM
T9 construct: purchased Reaction Biology Corporation

MARK2/PAR-1Ba = molecular target: T10, MARK2/PAR-1Ba (Homo sapiens, UniProt Q7KZI7); test: HotSpot kinase assay; details: 10µM
T10 construct: purchased Reaction Biology Corporation

TNK1 = molecular target: T11, TNK1 (Homo sapiens, UniProt Q13470); test: HotSpot kinase assay; details: 10µM
T11 construct: purchased Reaction Biology Corporation

EIF2AK4 = molecular target: T12, EIF2AK4 (Homo sapiens, UniProt Q9P2K8); test: HotSpot kinase assay; details: 10µM
T12 construct: purchased Reaction Biology Corporation

KDR/VEGFR2 = molecular target: T13, KDR/VEGFR2 (Homo sapiens, UniProt P35968); test: HotSpot kinase assay; details: 10µM
T13 construct: purchased Reaction Biology Corporation

AMPK(A1/B1/G3) = molecular target: T14, AMPK(A1/B1/G3) (Homo sapiens, UniProt Q13131); test: HotSpot kinase assay; details: 10µM
T14 construct: purchased Reaction Biology Corporation

NEK11 = molecular target: T15, NEK11 (Homo sapiens, UniProt Q8NG66); test: HotSpot kinase assay; details: 10µM
T15 construct: purchased Reaction Biology Corporation

c-MET = molecular target: T16, c-MET (Homo sapiens, UniProt P08581); details: 10µM
T16 construct: purchased Reaction Biology Corporation

SBK1 = molecular target: T17, SBK1 (Homo sapiens, UniProt Q52WX2); test: HotSpot kinase assay; details: 10µM
T17 construct: purchased Reaction Biology Corporation

FYN = molecular target: T18, FYN (Homo sapiens, UniProt P06241); test: HotSpot kinase assay; details: 10µM
T18 construct: purchased Reaction Biology Corporation

DYRK1/DYRK1A = molecular target: T19, DYRK1/DYRK1A (Homo sapiens, UniProt Q13627); test: HotSpot kinase assay; details: 10µM
T19 construct: purchased Reaction Biology Corporation

TRKC = molecular target: T20, TRKC (Homo sapiens, UniProt Q16288); test: HotSpot kinase assay; details: 10µM
T20 construct: purchased Reaction Biology Corporation

ERBB4/HER4 = molecular target: T21, ERBB4/HER4 (Homo sapiens, UniProt Q15303); test: HotSpot kinase assay; details: 10µM
T21 construct: purchased Reaction Biology Corporation

BRSK2 = molecular target: T22, BRSK2 (Homo sapiens, UniProt Q8IWQ3); test: HotSpot kinase assay; details: 10µM
T22 construct: purchased Reaction Biology Corporation

NEK2 = molecular target: T23, NEK2 (Homo sapiens, UniProt P51955); test: HotSpot kinase assay; details: 10µM
T23 construct: purchased Reaction Biology Corporation

FGR = molecular target: T24, FGR (Homo sapiens, UniProt P09769); test: HotSpot kinase assay; details: 10µM
T24 construct: purchased Reaction Biology Corporation

TRPM7/CHAK1 = molecular target: T25, TRPM7/CHAK1 (Homo sapiens, UniProt Q96QT4); test: HotSpot kinase assay; details: 10µM
T25 construct: purchased Reaction Biology Corporation

TYRO3/SKY = molecular target: T26, TYRO3/SKY (Homo sapiens, UniProt Q06418); test: HotSpot kinase assay; details: 10µM
T26 construct: purchased Reaction Biology Corporation

MARK3 = molecular target: T27, MARK3 (Homo sapiens, UniProt P27448); test: HotSpot kinase assay; details: 10µM
T27 construct: purchased Reaction Biology Corporation

NEK4 = molecular target: T28, NEK4 (Homo sapiens, UniProt P51957); test: HotSpot kinase assay; details: 10µM
T28 construct: purchased Reaction Biology Corporation

PKG1b = molecular target: T29, PKG1b (Homo sapiens, UniProt Q13976); test: HotSpot kinase assay; details: 10µM
T29 construct: purchased Reaction Biology Corporation

IRAK4 = molecular target: T30, IRAK4 (Homo sapiens, UniProt Q9NWZ3); test: HotSpot kinase assay; details: 10µM
T30 construct: purchased Reaction Biology Corporation

CDK1/cyclin A = molecular target: T31, CDK1/cyclin A (Homo sapiens, UniProt P06493); test: HotSpot kinase assay; details: 10µM
T31 construct: purchased Reaction Biology Corporation

PAK1 = molecular target: T32, PAK1 (Homo sapiens, UniProt Q13153); test: HotSpot kinase assay; details: 10µM
T32 construct: purchased Reaction Biology Corporation

PKCeta = molecular target: T33, PKCeta (Homo sapiens, UniProt P24723); test: HotSpot kinase assay; details: 10µM
T33 construct: purchased Reaction Biology Corporation

MRCKb/CDC42BPB = molecular target: T34, MRCKb/CDC42BPB (Homo sapiens, UniProt Q9Y5S2); test: HotSpot kinase assay; details: 10µM
T34 construct: purchased Reaction Biology Corporation

NEK3 = molecular target: T35, NEK3 (Homo sapiens, UniProt P51956); test: HotSpot kinase assay; details: 10µM
T35 construct: purchased Reaction Biology Corporation

PLK1 = molecular target: T36, PLK1 (Homo sapiens, UniProt P53350); test: HotSpot kinase assay; details: 10µM
T36 construct: purchased Reaction Biology Corporation

JAK1 = molecular target: T37, JAK1 (Homo sapiens, UniProt P23458); test: HotSpot kinase assay; details: 10µM
T37 construct: purchased Reaction Biology Corporation

PKCa = molecular target: T38, PKCa (Homo sapiens, UniProt P17252); test: HotSpot kinase assay; details: 10µM
T38 construct: purchased Reaction Biology Corporation

IR = molecular target: T39, IR (Homo sapiens, UniProt P06213)
T39 construct: purchased Reaction Biology Corporation

MLK1/MAP3K9 = molecular target: T40, MLK1/MAP3K9 (Homo sapiens, UniProt P80192); test: HotSpot kinase assay; details: 10µM
T40 construct: purchased Reaction Biology Corporation

HCK = molecular target: T41, HCK (Homo sapiens, UniProt P08631); test: HotSpot kinase assay; details: 10µM
T41 construct: purchased Reaction Biology Corporation

CK1d = molecular target: T42, CK1d (Homo sapiens, UniProt P48730); test: HotSpot kinase assay; details: 10µM
T42 construct: purchased Reaction Biology Corporation

PKA = molecular target: T43, PKA (Homo sapiens, UniProt P17612); test: HotSpot kinase assay; details: 10µM
T43 construct: purchased Reaction Biology Corporation

For `CO[C@@H]1[C@H](N(C)C(=O)CCC(=O)NCc2cn(CCCS(=O)(=O)O)nn2)C[C@H]2O[C@]1(C)n1c3ccccc3c3c4c(c5c6ccccc6n2c5c31)C(=O)NC4` [CIMSS], the “% Enzyme Activity (relative to DMSO controls)” value (CLK3) was 34.93%, the “% Enzyme Activity (relative to DMSO controls)” value (EIF2AK1) was 81.15% and the “% Enzyme Activity (relative to DMSO controls)” value (EPHA7) was 6.08%. The “% Enzyme Activity (relative to DMSO controls)” value (CK1epsilon) was 38.79%, the “% Enzyme Activity (relative to DMSO controls)” value (MASTL) was 33.66% and the “% Enzyme Activity (relative to DMSO controls)” value (FGFR1) was 6.17%. For the same molecule, the “% Enzyme Activity (relative to DMSO controls)” value (LIMK2) was 66.53%, the “% Enzyme Activity (relative to DMSO controls)” value (PKD2/PRKD2) was 11.75% and the “% Enzyme Activity (relative to DMSO controls)” value (AMPK (A2/B1/G3)) was 0.59%. For the same molecule, the “% Enzyme Activity (relative to DMSO controls)” value (MARK2/PAR-1Ba) was 2.21%, the “% Enzyme Activity (relative to DMSO controls)” value (TNK1) was 2.88% and the “% Enzyme Activity (relative to DMSO controls)” value (EIF2AK4) was 9.39%. The “% Enzyme Activity (relative to DMSO controls)” value (KDR/VEGFR2) was 6.16%, the “% Enzyme Activity (relative to DMSO controls)” value (AMPK(A1/B1/G3)) was 0.22% and 0.07% and the “% Enzyme Activity (relative to DMSO controls)” value (NEK11) was 49.43%. The “% Enzyme Activity (relative to DMSO controls)” value (c-MET) was 9.84%, the “% Enzyme Activity (relative to DMSO controls)” value (SBK1) was 76.94% and the “% Enzyme Activity (relative to DMSO controls)” value (FYN) was 2.44%. For the same molecule, the “% Enzyme Activity (relative to DMSO controls)” value (DYRK1/DYRK1A) was 1.92%, the “% Enzyme Activity (relative to DMSO controls)” value (TRKC) was 0.18% and the “% Enzyme Activity (relative to DMSO controls)” value (ERBB4/HER4) was 24.80%. The “% Enzyme Activity (relative to DMSO controls)” value (BRSK2) was 1.53%, the “% Enzyme Activity (relative to DMSO controls)” value (NEK2) was 18.42% and the “% Enzyme Activity (relative to DMSO controls)” value (FGR) was 1.11%. The “% Enzyme Activity (relative to DMSO controls)” value (TRPM7/CHAK1) was 91.48%, the “% Enzyme Activity (relative to DMSO controls)” value (TYRO3/SKY) was 23.35% and the “% Enzyme Activity (relative to DMSO controls)” value (MARK3) was 1.76%. For the same molecule, the “% Enzyme Activity (relative to DMSO controls)” value (NEK4) was 5.73%, the “% Enzyme Activity (relative to DMSO controls)” value (PKG1b) was 12.45% and the “% Enzyme Activity (relative to DMSO controls)” value (IRAK4) was 6.41%. For the same molecule, the “% Enzyme Activity (relative to DMSO controls)” value (CDK1/cyclin A) was 18.54%, the “% Enzyme Activity (relative to DMSO controls)” value (PAK1) was 7.21% and the “% Enzyme Activity (relative to DMSO controls)” value (PKCeta) was 1.78% and 0.42%. For the same molecule, the “% Enzyme Activity (relative to DMSO controls)” value (MRCKb/CDC42BPB) was 73.82%, the “% Enzyme Activity (relative to DMSO controls)” value (NEK3) was 85.95% and the “% Enzyme Activity (relative to DMSO controls)” value (PLK1) was 17.05%. The “% Enzyme Activity (relative to DMSO controls)” value (JAK1) was -0.15% and -0.64%, the “% Enzyme Activity (relative to DMSO controls)” value (PKCa) was 0.84% and the “% Enzyme Activity (relative to DMSO controls)” value (IR; 10µM) was 15.41%. The “fold less effective than staurosporine (IC50)” value (IR; insulin receptor) was ~ 40 fold, the “% Enzyme Activity (relative to DMSO controls)” value (MLK1/MAP3K9) was 4.01% and the “% Enzyme Activity (relative to DMSO controls)” value (HCK) was 6.46%. For the same molecule, the “% Enzyme Activity (relative to DMSO controls)” value (CK1d) was 100.57% and the “% Enzyme Activity (relative to DMSO controls)” value (PKA) was 6.28%.
